Laboratory results from US10022376B2 (Pfizer Inc., priority 2014, dated 2018).
Structures can show the parent of a compound that is named as a salt.

Sequences of proteins named here, by UniProt entry; tags and fusion partners are left off. A change or cut given only in a name is not applied to a line headed by its entry.
UniProt P23458: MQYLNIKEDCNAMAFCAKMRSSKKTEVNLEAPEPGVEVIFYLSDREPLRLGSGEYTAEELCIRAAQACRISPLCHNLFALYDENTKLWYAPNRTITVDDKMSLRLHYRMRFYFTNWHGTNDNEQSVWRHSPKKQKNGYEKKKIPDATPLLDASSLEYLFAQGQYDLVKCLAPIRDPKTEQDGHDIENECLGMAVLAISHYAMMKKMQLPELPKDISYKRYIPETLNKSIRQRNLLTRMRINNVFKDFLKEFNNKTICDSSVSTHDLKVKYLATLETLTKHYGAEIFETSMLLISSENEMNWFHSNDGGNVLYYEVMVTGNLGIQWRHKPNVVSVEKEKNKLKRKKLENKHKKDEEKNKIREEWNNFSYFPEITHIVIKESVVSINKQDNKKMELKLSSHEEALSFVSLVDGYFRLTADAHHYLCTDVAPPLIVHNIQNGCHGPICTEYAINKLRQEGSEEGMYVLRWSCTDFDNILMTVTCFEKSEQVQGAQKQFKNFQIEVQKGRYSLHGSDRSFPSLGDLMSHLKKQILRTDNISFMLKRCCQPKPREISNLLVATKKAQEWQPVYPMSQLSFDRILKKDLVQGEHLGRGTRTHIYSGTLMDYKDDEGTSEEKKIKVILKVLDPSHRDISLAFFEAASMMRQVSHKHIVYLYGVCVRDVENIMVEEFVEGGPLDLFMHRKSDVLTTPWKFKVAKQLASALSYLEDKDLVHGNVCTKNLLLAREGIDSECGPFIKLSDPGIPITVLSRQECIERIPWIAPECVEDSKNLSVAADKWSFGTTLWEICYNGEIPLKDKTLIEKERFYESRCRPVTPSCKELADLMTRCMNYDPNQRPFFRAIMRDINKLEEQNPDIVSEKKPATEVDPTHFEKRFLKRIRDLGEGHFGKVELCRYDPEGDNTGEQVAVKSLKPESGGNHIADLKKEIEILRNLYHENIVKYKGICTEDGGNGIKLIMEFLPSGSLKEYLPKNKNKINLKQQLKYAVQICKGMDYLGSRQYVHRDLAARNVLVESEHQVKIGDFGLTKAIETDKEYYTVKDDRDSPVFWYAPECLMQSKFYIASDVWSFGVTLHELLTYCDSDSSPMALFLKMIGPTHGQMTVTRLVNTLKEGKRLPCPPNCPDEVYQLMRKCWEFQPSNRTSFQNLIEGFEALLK

Molecular target: JAK1 (Homo sapiens (Human), UniProt P23458)
Assay: JAK Caliper Enzyme Assay at 1 mM ATP (JAK1)
Format: biochemical
Conditions: Caliper assay at 1 mM ATP

IC50: 7.2 nM
Structure (SMILES): CCc1cc(O)ccc1-c1cc2[nH]ncc2c(N2CCc3c(cccc3C(=O)NCc3ccccc3)C2)n1 [Example 117, N-benzyl-2-[6-(2-ethyl-4-hydroxyphenyl)-1H-pyrazolo[4,3-c]pyridin-4-yl]-1,2,3,4-tetrahydroisoquinoline-5-carboxamide formate]
